Measured values from patent publication US5045530A, “Pharmaceutical preparations” (priority 1986, dated 1991).

Tested on: normal cell lines; cells infected with Herpes simples (DNA virus)

## NC(=O)c1ncn([C@@H]2O[C@H](CO)[C@@H](O)[C@H]2O)n1 [Ribavirin, 1-β-D-ribofuranosyl-1,2,4-triazole-3-carboxamide]
  cytotoxic range: 200 to 1000 µg/mL
  cytotoxicity: 50 µg/mL
